Reference: patent US6689742B1, “NY-ESO-1 peptide derivatives, and uses thereof” (Chancellors, Masters and Scholars of the University of …, priority 2000, dated 2004)

Key:
Format in all cases: cell-based, human
[1] = tested on: ESO1 specific CTL clone ESO5; assay: recognition by specific CTLs, 51Cr release from peptide-pulsed T2 cells
[2] = tested on: NY-ESO-1 157-165 specific CTLs; assay: CTL assays of modified peptides
NY-ESO-1 specific CTLs = assay: stimulation of proliferation of NY-ESO-1 specific CTLs from PBLs of melanoma patients; conditions: 10 nM peptide; larger amounts of native peptide necessary
CTLs = assay: 51Cr release assay in presence of reducing agent (DTT or TCEP); conditions: 200 μM DTT or TCEP

EC50 ([1]; T2 targets, CTL clone ESO5, lymphocyte:target ratio 30:1, 4 hours, read-out: Peptide ([nM] 50%), concentration giving 50% maximal activity): 1 nM
Sequence: SLLMWITQV [SEQ ID NO: 8]
recognition by CTL, in words ([1]; CTL clone ESO5, compared with parental peptide SEQ ID NO: 2): recognized as efficiently as SEQ ID NO: 2
increase of recognition by NY-ESO-1 157-165 specific CTLs as compared to SEQ ID NO: 2 [2]: about 1000 fold
stimulation of CTLs at low peptide concentration (NY-ESO-1 specific CTLs): stimulated the CTLs
increase of antigenicity in the presence of reducing agent (CTLs): no increase in antigenicity
